From patent US8959984B2, “Proteome-wide quantification of small molecule binding to cellular target proteins” (priority 2007, dated 2015) come the findings set out here.

Protein sequences, listed by entry. Tags and fused reporters are not part of them. Lines headed by an entry give the natural chain unless they say otherwise; changes in a name come on top.
UniProt O60563, whole entry: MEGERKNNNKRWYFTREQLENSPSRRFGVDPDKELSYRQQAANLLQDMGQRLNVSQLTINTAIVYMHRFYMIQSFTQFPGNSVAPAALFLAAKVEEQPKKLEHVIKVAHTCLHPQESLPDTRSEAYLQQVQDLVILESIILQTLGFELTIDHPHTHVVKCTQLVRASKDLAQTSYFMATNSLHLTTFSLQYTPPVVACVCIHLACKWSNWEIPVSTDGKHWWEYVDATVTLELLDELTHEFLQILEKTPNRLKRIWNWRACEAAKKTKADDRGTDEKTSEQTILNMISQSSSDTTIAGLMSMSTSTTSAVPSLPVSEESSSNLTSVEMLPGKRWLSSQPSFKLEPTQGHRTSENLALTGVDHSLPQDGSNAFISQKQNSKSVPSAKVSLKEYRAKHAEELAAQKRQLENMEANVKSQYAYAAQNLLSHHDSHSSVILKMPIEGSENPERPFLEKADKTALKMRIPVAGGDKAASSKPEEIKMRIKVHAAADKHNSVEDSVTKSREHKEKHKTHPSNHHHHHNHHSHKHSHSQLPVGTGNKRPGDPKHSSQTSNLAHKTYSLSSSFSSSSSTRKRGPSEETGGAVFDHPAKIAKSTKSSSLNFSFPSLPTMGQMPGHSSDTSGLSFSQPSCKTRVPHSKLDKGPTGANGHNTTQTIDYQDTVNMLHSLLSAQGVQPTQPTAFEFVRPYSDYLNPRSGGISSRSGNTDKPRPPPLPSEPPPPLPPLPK
UniProt O95835: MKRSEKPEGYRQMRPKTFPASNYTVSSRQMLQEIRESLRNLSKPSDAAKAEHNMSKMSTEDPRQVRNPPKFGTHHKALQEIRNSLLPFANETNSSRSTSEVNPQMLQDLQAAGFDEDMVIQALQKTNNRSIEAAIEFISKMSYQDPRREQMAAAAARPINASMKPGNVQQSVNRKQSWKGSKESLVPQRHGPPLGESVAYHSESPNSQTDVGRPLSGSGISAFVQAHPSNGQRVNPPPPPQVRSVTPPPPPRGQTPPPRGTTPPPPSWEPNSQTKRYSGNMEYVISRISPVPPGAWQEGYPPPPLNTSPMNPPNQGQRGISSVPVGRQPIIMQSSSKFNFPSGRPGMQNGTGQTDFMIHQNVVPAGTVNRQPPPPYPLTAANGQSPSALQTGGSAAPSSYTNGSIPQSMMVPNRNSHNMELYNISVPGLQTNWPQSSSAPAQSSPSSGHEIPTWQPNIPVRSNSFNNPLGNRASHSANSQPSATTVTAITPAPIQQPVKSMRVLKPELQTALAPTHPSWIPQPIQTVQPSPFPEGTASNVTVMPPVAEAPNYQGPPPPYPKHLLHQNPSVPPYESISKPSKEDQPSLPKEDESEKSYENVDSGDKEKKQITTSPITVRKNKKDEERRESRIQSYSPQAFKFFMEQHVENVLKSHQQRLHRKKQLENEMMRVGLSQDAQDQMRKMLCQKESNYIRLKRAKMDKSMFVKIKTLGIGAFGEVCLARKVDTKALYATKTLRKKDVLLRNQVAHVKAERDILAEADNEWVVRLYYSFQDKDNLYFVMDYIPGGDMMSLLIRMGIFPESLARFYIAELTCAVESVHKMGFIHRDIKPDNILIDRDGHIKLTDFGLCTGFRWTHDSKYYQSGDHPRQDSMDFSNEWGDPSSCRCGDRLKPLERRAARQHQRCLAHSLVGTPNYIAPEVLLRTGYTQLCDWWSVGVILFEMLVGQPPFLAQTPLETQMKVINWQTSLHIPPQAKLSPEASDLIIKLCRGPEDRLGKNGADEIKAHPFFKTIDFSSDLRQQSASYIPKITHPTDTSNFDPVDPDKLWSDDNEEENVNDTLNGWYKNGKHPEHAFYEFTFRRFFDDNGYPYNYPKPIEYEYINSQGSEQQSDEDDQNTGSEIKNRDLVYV
UniProt P29597: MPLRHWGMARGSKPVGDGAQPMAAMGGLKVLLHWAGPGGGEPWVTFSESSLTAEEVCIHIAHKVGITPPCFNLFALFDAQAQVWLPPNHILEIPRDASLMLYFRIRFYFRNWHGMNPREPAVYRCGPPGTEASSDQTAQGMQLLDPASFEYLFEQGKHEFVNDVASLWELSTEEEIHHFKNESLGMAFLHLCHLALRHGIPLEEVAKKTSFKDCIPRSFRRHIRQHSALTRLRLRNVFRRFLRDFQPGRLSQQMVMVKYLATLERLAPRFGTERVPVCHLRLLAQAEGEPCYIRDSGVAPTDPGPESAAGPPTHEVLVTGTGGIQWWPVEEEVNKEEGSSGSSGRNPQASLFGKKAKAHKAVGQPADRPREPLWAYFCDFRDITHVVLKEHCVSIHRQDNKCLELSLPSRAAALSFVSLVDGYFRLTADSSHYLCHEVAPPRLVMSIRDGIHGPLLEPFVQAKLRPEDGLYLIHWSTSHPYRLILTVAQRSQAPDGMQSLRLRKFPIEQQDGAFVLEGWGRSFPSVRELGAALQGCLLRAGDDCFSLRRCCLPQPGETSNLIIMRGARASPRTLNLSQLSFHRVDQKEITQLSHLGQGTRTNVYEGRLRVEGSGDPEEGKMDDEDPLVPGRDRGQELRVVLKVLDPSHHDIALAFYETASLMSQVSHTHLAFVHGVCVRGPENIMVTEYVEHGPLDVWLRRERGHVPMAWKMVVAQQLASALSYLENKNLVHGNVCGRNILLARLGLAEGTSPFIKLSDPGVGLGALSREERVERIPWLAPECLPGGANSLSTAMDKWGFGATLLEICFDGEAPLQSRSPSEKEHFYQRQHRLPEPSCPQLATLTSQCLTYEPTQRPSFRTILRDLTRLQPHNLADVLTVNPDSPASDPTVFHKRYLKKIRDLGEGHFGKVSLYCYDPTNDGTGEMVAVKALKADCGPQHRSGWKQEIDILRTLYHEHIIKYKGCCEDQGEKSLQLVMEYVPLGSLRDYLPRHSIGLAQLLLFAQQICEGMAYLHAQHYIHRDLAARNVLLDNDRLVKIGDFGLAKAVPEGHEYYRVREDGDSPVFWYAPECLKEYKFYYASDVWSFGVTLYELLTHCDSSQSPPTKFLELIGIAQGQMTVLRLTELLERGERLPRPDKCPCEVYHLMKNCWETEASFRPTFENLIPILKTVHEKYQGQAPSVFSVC
UniProt P49841: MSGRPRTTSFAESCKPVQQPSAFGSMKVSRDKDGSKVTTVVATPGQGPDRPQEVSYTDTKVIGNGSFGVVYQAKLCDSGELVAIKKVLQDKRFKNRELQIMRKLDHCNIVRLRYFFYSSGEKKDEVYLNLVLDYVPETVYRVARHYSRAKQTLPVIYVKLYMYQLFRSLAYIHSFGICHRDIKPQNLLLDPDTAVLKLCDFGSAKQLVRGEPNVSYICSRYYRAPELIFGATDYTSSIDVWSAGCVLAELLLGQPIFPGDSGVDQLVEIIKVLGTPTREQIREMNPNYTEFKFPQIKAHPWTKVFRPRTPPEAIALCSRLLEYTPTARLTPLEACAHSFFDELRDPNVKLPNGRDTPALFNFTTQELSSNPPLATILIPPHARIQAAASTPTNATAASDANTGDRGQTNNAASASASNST
UniProt P53667: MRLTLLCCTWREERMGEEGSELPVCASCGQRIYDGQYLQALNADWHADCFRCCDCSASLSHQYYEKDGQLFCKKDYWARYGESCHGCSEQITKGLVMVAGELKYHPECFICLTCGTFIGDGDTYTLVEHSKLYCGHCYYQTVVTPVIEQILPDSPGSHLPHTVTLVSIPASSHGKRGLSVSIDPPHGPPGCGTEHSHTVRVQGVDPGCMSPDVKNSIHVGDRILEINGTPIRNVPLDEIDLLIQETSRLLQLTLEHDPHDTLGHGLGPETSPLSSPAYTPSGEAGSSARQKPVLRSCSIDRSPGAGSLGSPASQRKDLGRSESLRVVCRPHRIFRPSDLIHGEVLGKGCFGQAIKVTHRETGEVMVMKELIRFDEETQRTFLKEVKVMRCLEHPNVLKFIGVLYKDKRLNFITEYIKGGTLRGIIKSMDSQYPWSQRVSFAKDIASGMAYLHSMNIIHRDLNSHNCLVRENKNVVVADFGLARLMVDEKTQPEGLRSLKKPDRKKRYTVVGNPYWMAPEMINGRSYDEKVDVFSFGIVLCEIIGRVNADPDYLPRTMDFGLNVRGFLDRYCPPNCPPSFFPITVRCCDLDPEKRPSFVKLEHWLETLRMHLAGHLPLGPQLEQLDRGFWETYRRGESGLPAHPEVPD
UniProt P68400, whole entry: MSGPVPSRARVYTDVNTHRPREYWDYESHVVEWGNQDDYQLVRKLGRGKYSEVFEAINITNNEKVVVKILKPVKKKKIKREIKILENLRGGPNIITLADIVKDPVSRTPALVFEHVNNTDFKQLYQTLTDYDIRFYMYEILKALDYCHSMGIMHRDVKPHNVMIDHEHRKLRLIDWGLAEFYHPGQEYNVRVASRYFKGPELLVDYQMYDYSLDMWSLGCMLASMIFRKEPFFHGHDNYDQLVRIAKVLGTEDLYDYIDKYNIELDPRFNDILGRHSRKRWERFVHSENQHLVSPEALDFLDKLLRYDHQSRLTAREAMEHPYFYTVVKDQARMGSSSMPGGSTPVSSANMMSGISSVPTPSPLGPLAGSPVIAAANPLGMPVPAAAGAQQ
UniProt Q14680: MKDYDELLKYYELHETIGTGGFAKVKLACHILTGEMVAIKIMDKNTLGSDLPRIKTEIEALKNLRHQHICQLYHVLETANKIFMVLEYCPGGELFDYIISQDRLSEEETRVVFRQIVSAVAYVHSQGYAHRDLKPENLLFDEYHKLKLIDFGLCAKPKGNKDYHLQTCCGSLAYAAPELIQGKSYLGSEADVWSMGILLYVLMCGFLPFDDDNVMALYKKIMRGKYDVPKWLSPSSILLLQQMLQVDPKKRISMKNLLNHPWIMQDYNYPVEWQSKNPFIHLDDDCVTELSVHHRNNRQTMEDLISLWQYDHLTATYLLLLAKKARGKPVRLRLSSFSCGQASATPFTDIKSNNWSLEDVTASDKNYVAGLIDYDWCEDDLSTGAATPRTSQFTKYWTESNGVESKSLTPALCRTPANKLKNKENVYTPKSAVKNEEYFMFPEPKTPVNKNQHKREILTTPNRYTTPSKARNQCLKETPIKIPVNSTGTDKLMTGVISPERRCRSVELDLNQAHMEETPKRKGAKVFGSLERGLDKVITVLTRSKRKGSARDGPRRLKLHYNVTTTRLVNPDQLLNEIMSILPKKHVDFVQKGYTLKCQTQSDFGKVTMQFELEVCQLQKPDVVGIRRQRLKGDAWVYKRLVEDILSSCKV
UniProt Q86YS7: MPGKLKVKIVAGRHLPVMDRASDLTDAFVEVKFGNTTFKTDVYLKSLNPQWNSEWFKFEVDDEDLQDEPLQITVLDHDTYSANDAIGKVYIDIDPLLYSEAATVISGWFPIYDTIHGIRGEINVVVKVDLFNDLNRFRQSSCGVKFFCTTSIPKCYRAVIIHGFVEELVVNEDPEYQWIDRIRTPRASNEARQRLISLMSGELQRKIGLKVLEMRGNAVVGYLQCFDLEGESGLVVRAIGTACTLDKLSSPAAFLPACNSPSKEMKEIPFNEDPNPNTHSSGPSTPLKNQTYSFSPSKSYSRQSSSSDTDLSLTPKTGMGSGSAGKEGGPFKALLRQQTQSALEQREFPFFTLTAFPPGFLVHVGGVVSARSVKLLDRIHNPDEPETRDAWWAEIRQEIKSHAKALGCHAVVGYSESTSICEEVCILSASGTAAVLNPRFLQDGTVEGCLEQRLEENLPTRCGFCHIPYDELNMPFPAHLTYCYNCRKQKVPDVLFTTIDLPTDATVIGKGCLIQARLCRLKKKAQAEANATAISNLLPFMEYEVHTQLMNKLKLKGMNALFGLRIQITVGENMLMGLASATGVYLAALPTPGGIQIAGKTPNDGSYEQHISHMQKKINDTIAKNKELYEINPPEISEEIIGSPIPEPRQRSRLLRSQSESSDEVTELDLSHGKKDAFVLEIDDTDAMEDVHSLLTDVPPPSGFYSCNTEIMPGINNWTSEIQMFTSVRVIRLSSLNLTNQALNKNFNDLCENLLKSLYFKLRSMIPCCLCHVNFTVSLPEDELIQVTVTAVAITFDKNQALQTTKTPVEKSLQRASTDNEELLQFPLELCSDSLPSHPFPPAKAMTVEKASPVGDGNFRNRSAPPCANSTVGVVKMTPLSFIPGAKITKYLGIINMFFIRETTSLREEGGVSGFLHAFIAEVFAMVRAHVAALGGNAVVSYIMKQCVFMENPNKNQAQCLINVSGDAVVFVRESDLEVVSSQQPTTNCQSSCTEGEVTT
UniProt Q99714: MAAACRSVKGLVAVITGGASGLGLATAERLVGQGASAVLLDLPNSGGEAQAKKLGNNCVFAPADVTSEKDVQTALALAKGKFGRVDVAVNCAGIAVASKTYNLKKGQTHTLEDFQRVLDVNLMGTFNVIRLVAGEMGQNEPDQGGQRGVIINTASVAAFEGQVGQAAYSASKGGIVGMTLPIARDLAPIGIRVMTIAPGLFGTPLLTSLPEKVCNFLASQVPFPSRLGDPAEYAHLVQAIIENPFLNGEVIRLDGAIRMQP

What all share (test): Ki determination for immobilized VI16742: two consecutive incubations, control beads, ligand concentration and incubation time controls (Tables 7, 8)
What all share (type): binding

Assay [1] addresses cellular target proteins in HeLa cell lysate (Homo sapiens, UniProt O60307). The following applies: Ki (VI16742), MAST3 IPI00028932. From the text: (§1) In an alternative implementation of the chemical proteomic approach according to the invention, the broadly-selective pyrido[2,3-d]pyrimidine-based kinase inhibitor VI16742 has been used for affinity capture (FIG. 10a). […] As shown by gene ontology analysis, the corresponding molecular functions were highly over-represented in proteins specifically retained by the inhibitor resin (FIG. 10b).
(§2) Cysteine carbamidomethylation was set as a fixed modification and N-acetyl protein and oxidized methionine were allowed as variable modifications. Spectra that were determined to result from heavy labeled peptides in the pre-search detection of SILAC partners by MaxQuant were searched with the fixed modifications Lys^4, Lys^8, Arg^6 and Arg^10, whereas MS/MS spectra for which no SILAC state could be assigned before database searching were searched with Lys^4, Lys^8, Arg^6 and Arg^10 as variable modifications. The mass tolerance was set to 5 ppm for monoisotopic precursor ions and to 0.5 Da for MS/MS peaks. The minimum peptide length was set to 6 amino acids and up to three missed cleavages and three isotopically labeled amino acids were permitted per peptide. The accepted false discovery rate (FDR) was 1% for the proteins and peptides. The cut-off for the posterior error probability (PEP) of peptides was set to 10%. Peptide PEPs were determined by generating Mascot score and peptide-length-dependent histograms for both the forward and the reverse hits and then deriving the probability of a false identification for a given top-scoring peptide using Bayes' theorem. The PEPs of peptides belonging to the same proteins were then multiplied. Each peptide sequence was considered only once with the lowest PEP determined in case of multiple sequencing of the same isotopic pattern or of peptide species with different SILAC, charge or modification states. Proteins were then sorted according to their products of their peptide PEPs and included until a FDR of 1% was reached according to the fraction of reverse proteins contained in the protein list. In addition to the FDR threshold applied for protein identification, proteins were only included when they were identified with at least two peptides (of which one was required to be unique for the protein) and quantified if at least on quantifiable SILAC pair was associated with them. Outliers were not removed as protein ratios were calculated as the median instead of the average of all peptide ratios. For peptides shared among different identified proteins, SILAC ratios were only considered for the ratio of the protein identified with the highest number of unique peptides. Protein ratios for the different in vitro association experiments were corrected for the initial SILAC pooling ratio, which was determined from the median of protein ratios in pooled SILAC-encoded cell extracts.

Assay [2] concerns the target cellular target proteins in HeLa cell lysate (Homo sapiens, UniProt O60563). The following applies: Ki (VI16742), CCNT1 IPI00030247.
Excerpt: as §1, §2

In assay [3] the target is cellular target proteins in HeLa cell lysate (Homo sapiens, UniProt O95835).
Excerpt: as §1, §2

The target of assay [4] is cellular target proteins in HeLa cell lysate (Homo sapiens, UniProt P29597). The following applies: Ki (VI16742), TYK2 IPI00022353.
Excerpt: as §1, §2

Assay [5] concerns the target cellular target proteins in HeLa cell lysate (Homo sapiens, UniProt P49841). The following applies: Ki (VI16742), GSK3B IPI00216190.
Excerpt: as §1, §2

The target of assay [6] is cellular target proteins in HeLa cell lysate (Homo sapiens, UniProt P53667). The settings on record: Ki (VI16742), LIMK1 IPI00291702.
Excerpt: as §1, §2

In assay [7] the target is cellular target proteins in HeLa cell lysate (Homo sapiens, UniProt P68400). The settings on record: Ki (VI16742), CK2a1 (CSNK2A1) IPI00016613.
Excerpt: as §1, §2

The target in assay [8] is cellular target proteins in HeLa cell lysate (Homo sapiens, UniProt Q14680). The following applies: Ki (VI16742), MELK IPI00006471.
Excerpt: as §1, §2

In assay [9] the target is cellular target proteins in HeLa cell lysate (Homo sapiens, UniProt Q86YS7). The settings on record: Ki (VI16742), KIAA0528 IPI00783895.
Excerpt: as §1, §2

For assay [10], the target named is T1, cellular target proteins in HeLa cell lysate (Homo sapiens, UniProt Q8IVH8).
T1 sequence (Q8IVH8 1-894): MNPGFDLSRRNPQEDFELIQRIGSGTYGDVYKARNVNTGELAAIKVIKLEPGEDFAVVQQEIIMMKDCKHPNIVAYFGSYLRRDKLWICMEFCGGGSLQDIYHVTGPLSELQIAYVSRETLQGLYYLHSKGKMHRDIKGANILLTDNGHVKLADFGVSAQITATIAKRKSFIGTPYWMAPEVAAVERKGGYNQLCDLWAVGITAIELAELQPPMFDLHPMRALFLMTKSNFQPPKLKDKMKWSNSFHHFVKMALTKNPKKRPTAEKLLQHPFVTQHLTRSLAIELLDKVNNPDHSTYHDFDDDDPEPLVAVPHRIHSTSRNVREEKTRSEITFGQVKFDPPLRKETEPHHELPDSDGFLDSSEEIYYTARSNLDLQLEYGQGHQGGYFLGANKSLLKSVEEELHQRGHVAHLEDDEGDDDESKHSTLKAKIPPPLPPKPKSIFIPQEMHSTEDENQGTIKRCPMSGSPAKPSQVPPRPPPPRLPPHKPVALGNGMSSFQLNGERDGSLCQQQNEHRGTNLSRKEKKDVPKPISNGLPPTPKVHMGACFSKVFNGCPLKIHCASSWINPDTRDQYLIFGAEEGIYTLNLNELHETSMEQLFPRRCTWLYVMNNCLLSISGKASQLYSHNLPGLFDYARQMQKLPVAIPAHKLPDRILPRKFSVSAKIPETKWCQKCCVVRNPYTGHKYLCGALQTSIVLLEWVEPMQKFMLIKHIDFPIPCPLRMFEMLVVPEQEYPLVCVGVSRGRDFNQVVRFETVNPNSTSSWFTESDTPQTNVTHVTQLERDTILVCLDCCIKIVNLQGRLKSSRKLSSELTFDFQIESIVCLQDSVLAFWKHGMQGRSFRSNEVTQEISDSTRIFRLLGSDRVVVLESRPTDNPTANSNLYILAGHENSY
The following applies: Ki (VI16742), KHS2 (MAP4K3) IPI00217024.
Excerpt: as §1, §2

Assay [11] deals with cellular target proteins in HeLa cell lysate (Homo sapiens, UniProt Q99714). The following applies: Ki (VI16742), HSD17B10 IPI00017726.
Excerpt: as §1, §2

Assay [12] concerns the target cellular target proteins in HeLa cell lysate (Homo sapiens, UniProt Q9Y3C4). The settings on record: Ki (VI16742), TPRKB IPI00301432.
Excerpt: as §1, §2

As a reminder, the Ki is a measure of affinity in units of concentration, obtained from inhibition or displacement. A high value points to a looser hold on the target. Regarding `CC(C)n1c(=O)ccc2cnc(Nc3ccc(OCCN)cc3)nc21` [V16742], the Ki in assay [1] worked out at 38.3 µM; in assay [2], 9.22 µM; in [3], 16.6 µM; in assay [4], 5.77 µM; in [5] it was 5.21 µM; in assay [6] it was 11 µM. In addition, the Ki in assay [7] amounted to 21.7 µM; in assay [8], 8.73 µM; in assay [9], 29.9 µM; in [10], 16.6 µM; in [11], 54.5 µM; in [12], 18.9 µM.
